Source: ChEMBL document CHEMBL3880421, “Indazole compounds and pharmaceutical compositions for inhibiting protein kinases, and methods for their use” (2003)

Biological target: T1, Serine/threonine-protein kinase Chk1 (Homo sapiens) (UniProt O14757)
T1 sequence (whole entry): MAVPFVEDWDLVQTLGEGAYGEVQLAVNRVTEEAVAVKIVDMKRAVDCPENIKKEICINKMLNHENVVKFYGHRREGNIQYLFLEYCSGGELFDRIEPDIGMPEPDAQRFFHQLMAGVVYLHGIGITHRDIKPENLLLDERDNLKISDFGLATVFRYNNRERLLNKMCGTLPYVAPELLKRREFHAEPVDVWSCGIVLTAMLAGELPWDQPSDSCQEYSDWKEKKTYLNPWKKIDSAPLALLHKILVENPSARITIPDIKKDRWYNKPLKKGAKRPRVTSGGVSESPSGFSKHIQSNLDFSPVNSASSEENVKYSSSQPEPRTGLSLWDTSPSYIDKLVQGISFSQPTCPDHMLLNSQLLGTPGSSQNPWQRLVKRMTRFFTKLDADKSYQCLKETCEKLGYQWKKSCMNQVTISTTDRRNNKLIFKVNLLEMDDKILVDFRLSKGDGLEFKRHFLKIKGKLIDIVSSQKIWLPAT
Experiment: Inhibition of full length human C-terminal 6His-tagged CHK1 expressed in baculovirus/insect expression system assessed as reduction in NADH oxidation at 20 uM using Syntide2 as substrate by pyruvate kinase/lactate dehydrogenase coupled assay

Going from `O=C(Nc1cccnc1)c1ccc2c(-c3nc4ccccc4[nH]3)n[nH]c2c1` to `O=C(Nc1ccncc1)c1ccc2c(-c3nc4ccccc4[nH]3)n[nH]c2c1`, the inhibition rises from 30.6% to 40%.

Work on `CC(=O)NCCNC(=O)c1ccc2c(-c3nc4ccccc4[nH]3)n[nH]c2c1` yielded an inhibition of 20.2%.
